For one molecule, IC50 results are on record in ChEMBL document CHEMBL1133467, “Identification of novel inhibitors of urokinase via NMR-based screening” (J Med Chem, 2000).

For the test, the target named is Urokinase-type plasminogen activator (Homo sapiens, UniProt P00749). Briefly: Inhibitory activity against Urokinase-type plasminogen activator.

SMILES strings stand for the structures.

On to `Nc1nc2cc(O)ccc2[nH]1`, for which the IC50 was determined as 10 µM.
